{
  "sequences": {"note": "Sequences of proteins named here, by UniProt entry; tags and fusion partners are left off.", "UniProt P31391, whole entry": "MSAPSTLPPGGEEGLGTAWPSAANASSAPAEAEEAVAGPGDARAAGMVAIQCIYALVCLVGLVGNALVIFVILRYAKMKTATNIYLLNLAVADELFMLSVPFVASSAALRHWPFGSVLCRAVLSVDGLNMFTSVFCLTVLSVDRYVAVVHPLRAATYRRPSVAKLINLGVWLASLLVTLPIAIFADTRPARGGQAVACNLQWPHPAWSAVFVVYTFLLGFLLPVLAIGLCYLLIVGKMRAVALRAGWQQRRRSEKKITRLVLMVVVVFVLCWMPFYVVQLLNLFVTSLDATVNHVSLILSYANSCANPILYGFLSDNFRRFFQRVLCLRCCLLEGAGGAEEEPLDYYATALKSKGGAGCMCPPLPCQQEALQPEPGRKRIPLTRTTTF"},
  "source": "patent US20090305995A1",
  "about": "“AGONISTS AND ANTAGONISTS OF THE SOMATOSTATIN RECEPTOR” (Novartis AG, priority 2004, published 2009)",
  "origin": "cited, not measured here",
  "key": {"[1]": {"tested_on": "secretion of growth hormone, insulin or glucagon", "conditions": "literature (Rohrer et al. 1998); cited from earlier work"}, "sst4 receptor": {"target": "sst4 receptor (Homo sapiens, UniProt P31391)", "conditions": "literature value; cited from earlier work"}},
  "data": [
    {"smiles": "COC(=O)[C@H](CCCNC(=N)N)NC(=O)CCCc1c(-c2ccccc2)[nH]c2c(F)cc(F)cc12", "values": [
      {"measurement": "inhibition of secretion of growth hormone, insulin or glucagon", "setting": "[1]", "result": "did not inhibit"},
      {"measurement": "Kd", "setting": "sst4 receptor", "result": 0.7, "unit": "nM"}
    ]}
  ]
}
